Chains of the proteins cited; added tags and fusions are not shown. Residues count along the entry.
UniProt P14780, 107-707 limits assumed: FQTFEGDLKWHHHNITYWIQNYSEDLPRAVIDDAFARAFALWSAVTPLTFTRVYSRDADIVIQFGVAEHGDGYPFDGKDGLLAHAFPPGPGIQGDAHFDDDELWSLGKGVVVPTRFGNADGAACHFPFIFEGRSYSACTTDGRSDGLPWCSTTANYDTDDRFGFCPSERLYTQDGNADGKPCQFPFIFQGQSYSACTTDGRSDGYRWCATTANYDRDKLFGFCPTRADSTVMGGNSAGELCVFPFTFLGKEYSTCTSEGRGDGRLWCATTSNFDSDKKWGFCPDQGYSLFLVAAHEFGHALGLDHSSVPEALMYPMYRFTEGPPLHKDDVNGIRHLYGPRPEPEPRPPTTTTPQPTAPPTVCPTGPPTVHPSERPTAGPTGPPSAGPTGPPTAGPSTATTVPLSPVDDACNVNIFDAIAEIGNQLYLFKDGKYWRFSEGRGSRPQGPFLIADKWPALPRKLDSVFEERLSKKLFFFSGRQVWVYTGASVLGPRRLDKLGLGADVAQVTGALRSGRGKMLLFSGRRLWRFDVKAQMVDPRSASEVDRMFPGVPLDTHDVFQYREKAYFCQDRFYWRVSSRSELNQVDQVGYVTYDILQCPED

In patent US6919375B1, “Sulfonated amino acid derivatives and metalloproteinase inhibitors containing the same” (Shionogi & Co., Ltd., priority 1996, dated 2005):

Molecular target: Type IV collagenase (MMP-9) (Homo sapiens, UniProt P14780)
Test: Type IV collagenase (MMP-9) inhibition assay, fluorescent substrate kit
Type: biochemical
Details: activated MMP-9 from HT 1080 cells; type IV collagenase activity kit, fluorescent intensity

IC50: 2980 nM
Compound: CC(C)[C@@H](NS(=O)(=O)c1ccc(C#Cc2ccc(O)cc2)cc1)C(=O)O
